In patent US7041292B1, “Treating prostate cancer with anti-ErbB2 antibodies” (Genentech, Inc., priority 1999, dated 2006):
“Also recorded” adds a separate entry of the source.

Assays:
[1] = test system: CWR22 human prostate cancer xenograft; test: Androgen dependent CWR22 prostate cancer xenograft; assay type: in vivo, mice
[2] = test system: LNCaP human prostate cancer xenograft; test: Androgen dependent LNCaP prostate cancer xenograft; assay type: in vivo, mice; conditions: end of the treatment period, n=6
[3] = test system: CWR22R human prostate cancer xenograft; test: Androgen independent CWR22R prostate cancer xenograft; assay type: in vivo, mice
[4] = test system: CWRSA6 human prostate cancer xenograft; test: Androgen independent CWRSA6 prostate cancer xenograft; assay type: in vivo, mice
[5] = test system: panel of human tumor cell lines; test: Inhibition of specific 125I-labeled rHRGβ1 binding to a panel of human tumor cell lines; conditions: all cell lines with the exception of MDA-MB-468; FIG. 3

| Substance | mean tumor volume ([1]; CWR22, end of the treatment period, n=6) | growth inhibition ([1]; CWR22, versus control, HERCEPTIN® 20 mg/kg i.p. twice weekly) | effect on tumor growth / clinical activity ([1]; CWR22 androgen dependent, antibody 20 mg/kg twice weekly) | mean tumor volume [2] | effect on tumor growth / clinical activity [3] | effect on tumor growth / clinical activity [4] | inhibition of 125I-labeled rHRGβ1 binding [5] |
| --- | --- | --- | --- | --- | --- | --- | --- |
| HERCEPTIN®: recombinant humanized version of the murine anti-ErbB2 antibody 4D5 | 520 mm^3 | 68% | has clinical activity | 163 mm^3 | No effect; also recorded: little or no clinical activity | No effect; also recorded: little or no clinical activity | – |
| 2C4: murine monoclonal antibody binding the extracellular domain of ErbB2, blocks ligand activation; ATCC HB12697 [Mutant 2C4] | – | – | – | – | – | – | significantly inhibited |
